Source: patent US20260201030A1, “ANTIBODY, ANTIBODY-DRUG CONJUGATE THEREOF AND USE THEREOF” (EVOPOINT BIOSCIENCES CO., LTD., priority 2021, published 2026)

How the values were obtained:
[1] = target: cynomolgus monkey Claudin18.2 (cynomolgus monkey); assay: FACS on HEK293T-Claudin18.2 (cynomolgus monkey) cells
[2] = target: cynomolgus monkey Claudin18.2 (cynomolgus monkey); assay: FACS, IMAB362 20 µg/mL, HEK293T-Claudin18.2 (cynomolgus monkey) cells

EC50 [1]: 0.243 µg/mL
positive rate (%) [2]: > 95%
Substance: reference antibody IMAB362
